These results are taken from ChEMBL document CHEMBL5212743, “Selectivity Literature for EUbOPEN Chemogenomics Library wave 3” (2023).

Protein sequences, listed by entry. Tags and fused reporters are not part of them. Lines headed by an entry give the natural chain unless they say otherwise; changes in a name come on top.
UniProt Q16584: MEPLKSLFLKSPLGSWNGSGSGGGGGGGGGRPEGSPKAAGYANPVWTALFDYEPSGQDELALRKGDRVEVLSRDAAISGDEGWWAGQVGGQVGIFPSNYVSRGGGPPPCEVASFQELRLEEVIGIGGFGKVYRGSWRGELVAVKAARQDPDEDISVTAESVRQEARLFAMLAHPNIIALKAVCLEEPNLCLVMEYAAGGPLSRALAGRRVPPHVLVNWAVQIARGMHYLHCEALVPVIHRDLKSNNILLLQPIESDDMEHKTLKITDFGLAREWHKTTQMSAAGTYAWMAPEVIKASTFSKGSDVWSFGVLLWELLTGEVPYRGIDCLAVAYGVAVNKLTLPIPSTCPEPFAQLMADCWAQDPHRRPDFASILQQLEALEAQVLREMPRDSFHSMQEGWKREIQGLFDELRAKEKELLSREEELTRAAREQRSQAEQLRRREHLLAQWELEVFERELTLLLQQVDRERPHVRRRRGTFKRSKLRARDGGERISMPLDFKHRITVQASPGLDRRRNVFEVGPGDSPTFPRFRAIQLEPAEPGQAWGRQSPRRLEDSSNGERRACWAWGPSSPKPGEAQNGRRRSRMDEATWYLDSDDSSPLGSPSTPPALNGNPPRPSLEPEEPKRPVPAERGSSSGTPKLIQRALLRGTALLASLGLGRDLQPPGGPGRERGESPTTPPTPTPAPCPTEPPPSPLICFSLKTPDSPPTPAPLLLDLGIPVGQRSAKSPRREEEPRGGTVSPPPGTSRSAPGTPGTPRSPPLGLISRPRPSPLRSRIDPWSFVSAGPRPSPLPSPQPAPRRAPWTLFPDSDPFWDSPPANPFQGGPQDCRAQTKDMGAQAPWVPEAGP
UniProt P36897: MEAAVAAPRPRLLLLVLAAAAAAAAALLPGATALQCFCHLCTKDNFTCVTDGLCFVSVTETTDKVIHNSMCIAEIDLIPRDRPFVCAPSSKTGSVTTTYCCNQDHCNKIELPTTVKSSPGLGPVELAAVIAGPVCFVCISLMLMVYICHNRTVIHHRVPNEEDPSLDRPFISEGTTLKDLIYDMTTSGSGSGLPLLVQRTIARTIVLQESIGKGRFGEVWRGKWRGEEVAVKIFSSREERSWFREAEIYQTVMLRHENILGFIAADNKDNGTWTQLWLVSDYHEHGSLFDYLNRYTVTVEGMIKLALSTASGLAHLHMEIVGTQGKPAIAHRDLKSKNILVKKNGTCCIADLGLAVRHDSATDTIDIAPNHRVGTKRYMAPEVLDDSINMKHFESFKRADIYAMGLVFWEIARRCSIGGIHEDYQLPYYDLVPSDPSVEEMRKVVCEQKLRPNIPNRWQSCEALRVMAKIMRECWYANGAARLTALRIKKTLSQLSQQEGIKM
UniProt O43683: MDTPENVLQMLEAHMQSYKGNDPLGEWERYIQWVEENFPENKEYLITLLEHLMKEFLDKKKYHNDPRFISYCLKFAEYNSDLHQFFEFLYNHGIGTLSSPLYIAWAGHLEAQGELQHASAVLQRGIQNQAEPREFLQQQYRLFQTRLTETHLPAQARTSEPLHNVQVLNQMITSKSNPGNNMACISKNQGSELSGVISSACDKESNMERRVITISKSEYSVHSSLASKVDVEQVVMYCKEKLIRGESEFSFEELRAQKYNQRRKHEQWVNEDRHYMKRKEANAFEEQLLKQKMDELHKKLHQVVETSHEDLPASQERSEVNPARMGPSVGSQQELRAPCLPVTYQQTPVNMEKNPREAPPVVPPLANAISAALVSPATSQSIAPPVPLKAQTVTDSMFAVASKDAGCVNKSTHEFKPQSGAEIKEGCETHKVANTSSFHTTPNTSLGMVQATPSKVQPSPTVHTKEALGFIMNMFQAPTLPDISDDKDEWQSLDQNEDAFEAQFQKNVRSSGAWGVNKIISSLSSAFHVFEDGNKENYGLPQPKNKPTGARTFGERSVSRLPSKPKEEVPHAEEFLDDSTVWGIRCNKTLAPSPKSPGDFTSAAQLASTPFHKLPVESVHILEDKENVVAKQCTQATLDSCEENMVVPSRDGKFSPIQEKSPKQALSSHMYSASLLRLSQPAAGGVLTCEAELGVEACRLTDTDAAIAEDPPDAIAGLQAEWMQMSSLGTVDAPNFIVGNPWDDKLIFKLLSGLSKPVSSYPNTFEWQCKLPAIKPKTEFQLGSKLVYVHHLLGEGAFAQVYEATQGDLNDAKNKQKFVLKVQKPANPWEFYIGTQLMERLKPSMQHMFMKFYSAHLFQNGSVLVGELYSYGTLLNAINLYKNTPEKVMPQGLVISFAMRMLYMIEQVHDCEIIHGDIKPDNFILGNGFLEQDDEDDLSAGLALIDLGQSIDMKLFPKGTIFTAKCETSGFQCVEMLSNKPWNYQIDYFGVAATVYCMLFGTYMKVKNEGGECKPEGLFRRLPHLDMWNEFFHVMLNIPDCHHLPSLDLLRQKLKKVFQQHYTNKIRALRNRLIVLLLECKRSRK
UniProt P11802: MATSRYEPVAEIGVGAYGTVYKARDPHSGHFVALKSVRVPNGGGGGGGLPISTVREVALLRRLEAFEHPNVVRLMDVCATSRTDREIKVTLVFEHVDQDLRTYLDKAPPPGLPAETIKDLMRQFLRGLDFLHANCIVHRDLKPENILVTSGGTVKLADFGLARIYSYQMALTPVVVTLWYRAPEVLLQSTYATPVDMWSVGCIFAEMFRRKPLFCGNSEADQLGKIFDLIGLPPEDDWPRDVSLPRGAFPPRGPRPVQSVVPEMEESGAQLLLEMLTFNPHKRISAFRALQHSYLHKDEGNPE
UniProt Q96PY6: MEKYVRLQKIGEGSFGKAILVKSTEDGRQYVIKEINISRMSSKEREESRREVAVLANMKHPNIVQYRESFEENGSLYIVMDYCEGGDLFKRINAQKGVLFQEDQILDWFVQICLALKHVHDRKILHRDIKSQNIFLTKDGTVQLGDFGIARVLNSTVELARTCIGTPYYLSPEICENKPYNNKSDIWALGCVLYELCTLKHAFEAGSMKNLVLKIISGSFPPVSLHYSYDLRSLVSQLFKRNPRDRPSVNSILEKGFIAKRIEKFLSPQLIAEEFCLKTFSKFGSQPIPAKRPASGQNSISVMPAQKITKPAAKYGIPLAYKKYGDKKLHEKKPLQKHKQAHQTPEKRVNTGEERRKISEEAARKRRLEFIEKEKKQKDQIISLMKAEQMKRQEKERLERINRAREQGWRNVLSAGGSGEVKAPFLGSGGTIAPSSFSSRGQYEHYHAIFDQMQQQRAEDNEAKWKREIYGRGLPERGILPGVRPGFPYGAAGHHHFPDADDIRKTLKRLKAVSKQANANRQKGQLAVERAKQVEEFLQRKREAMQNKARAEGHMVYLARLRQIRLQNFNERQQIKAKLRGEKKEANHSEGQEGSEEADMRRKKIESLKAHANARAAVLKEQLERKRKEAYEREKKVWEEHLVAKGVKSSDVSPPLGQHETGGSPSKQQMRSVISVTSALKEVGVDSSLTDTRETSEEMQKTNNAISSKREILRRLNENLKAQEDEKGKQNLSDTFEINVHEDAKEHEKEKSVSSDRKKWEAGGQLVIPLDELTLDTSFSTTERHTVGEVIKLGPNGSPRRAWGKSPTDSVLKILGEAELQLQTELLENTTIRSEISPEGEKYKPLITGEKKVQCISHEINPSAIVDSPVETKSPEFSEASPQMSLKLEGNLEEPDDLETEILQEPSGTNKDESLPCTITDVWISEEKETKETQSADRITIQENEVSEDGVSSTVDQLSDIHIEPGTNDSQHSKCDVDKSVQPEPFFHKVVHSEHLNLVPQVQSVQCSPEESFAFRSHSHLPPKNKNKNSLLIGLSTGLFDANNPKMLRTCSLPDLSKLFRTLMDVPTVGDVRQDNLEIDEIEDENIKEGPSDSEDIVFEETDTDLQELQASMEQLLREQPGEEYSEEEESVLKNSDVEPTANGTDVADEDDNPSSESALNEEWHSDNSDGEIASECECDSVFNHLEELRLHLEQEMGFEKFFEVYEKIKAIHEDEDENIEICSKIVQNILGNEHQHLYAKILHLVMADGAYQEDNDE
UniProt P07333, whole entry: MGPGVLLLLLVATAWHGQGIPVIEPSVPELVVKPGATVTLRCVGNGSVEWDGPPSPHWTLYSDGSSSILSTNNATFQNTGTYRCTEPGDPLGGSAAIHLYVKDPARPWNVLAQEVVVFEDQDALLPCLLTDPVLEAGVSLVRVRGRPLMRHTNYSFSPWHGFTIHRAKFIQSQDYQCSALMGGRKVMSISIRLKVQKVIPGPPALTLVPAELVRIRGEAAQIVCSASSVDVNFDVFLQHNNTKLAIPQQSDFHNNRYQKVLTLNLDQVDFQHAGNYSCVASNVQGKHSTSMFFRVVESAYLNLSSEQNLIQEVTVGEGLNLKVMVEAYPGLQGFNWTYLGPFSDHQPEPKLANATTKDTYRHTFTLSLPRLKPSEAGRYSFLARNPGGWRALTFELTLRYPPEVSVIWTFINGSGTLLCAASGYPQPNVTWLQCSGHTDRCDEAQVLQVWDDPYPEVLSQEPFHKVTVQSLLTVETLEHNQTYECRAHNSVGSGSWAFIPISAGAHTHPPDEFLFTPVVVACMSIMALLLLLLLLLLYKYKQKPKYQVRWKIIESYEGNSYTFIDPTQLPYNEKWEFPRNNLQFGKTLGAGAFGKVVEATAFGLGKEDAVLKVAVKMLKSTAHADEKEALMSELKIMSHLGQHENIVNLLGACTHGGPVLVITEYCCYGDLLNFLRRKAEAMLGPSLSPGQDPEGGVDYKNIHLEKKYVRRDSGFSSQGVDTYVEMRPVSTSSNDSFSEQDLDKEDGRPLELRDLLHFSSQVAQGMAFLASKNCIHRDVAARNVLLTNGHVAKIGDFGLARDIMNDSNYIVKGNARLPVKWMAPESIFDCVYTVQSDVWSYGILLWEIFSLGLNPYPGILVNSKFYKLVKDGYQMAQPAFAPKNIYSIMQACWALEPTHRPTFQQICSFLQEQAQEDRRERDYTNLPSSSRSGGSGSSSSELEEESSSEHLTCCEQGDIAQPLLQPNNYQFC
UniProt P29320: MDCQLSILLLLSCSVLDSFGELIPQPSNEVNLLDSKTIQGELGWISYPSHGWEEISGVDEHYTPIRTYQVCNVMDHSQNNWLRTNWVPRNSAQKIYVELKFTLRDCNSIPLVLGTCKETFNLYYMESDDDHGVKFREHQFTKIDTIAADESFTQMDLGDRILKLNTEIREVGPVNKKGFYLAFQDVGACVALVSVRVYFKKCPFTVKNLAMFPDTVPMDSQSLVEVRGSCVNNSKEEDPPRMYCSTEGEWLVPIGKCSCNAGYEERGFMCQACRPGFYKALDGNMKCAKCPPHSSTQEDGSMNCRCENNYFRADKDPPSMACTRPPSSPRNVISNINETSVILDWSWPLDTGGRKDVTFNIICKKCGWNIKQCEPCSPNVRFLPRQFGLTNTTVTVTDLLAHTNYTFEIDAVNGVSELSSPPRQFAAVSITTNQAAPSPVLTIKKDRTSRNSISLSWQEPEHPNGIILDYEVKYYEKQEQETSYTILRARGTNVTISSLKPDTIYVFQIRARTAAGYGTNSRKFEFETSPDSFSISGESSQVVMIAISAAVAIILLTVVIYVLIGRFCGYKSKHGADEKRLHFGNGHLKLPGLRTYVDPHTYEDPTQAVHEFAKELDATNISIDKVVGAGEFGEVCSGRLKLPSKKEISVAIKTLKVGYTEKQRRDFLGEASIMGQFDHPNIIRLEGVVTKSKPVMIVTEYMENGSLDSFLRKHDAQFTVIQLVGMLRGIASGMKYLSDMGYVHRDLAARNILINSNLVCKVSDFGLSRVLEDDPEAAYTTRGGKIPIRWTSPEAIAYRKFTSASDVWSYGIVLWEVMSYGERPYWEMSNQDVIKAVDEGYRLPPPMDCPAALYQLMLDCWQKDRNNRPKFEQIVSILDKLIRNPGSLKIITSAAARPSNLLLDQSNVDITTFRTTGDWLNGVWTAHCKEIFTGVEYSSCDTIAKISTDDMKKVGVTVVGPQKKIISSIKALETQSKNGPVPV
UniProt Q9HBH9: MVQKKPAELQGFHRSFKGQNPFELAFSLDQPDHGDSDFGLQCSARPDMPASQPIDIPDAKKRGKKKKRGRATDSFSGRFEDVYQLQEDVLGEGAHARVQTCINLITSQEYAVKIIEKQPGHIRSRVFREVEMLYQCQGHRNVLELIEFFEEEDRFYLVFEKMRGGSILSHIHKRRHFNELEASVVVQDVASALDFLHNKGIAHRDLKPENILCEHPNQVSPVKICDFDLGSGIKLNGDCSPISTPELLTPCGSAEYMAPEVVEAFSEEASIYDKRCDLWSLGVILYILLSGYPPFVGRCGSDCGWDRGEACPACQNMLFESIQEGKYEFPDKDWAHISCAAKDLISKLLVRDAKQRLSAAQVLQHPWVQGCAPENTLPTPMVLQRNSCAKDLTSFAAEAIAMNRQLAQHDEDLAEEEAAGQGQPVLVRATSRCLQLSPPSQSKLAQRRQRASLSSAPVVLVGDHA

The structures appear in SMILES notation. Where only a bound is given, the exact number is not on record here.

The target of assay [1] is Mitogen-activated protein kinase kinase kinase 11 (Homo sapiens) (UniProt Q16584). The conditions noted are these: at 500 nM.
For assay [2], the target named is Serine/threonine-protein kinase N2 (Homo sapiens) (UniProt Q16513). Conditions: at 500 nM.
Assay [3] concerns the target NUAK family SNF1-like kinase 2 (Homo sapiens) (UniProt Q9H093). The conditions noted are these: at 500 nM.
Assay [4] has as its target Ribosomal protein S6 kinase alpha-6 (Homo sapiens) (UniProt Q9UK32). The conditions noted are these: at 500 nM.
Assay [5] deals with T1, Tyrosine-protein kinase Blk (Homo sapiens, UniProt P51451). The conditions noted are these: at 500 nM.
Assay [6] has as its target Ribosomal protein S6 kinase alpha-1 (Homo sapiens) (UniProt Q15418). Conditions: at 500 nM.
The target in assay [7] is T2, Leucine-rich repeat serine/threonine-protein kinase 2 (Homo sapiens, UniProt Q5S007). Conditions: at 500 nM.
The target in assay [8] is Protein kinase C beta type (Homo sapiens) (UniProt P05771). The conditions noted are these: at 500 nM.
Assay [9] deals with Cyclin-G-associated kinase (Homo sapiens) (UniProt O14976).
Assay [10] deals with Serine/threonine-protein kinase PLK1 (Homo sapiens, UniProt P53350). Conditions: at 10 µM.
Assay [11] addresses Mitogen-activated protein kinase 14 (Homo sapiens, UniProt Q16539). Conditions: at 1 µM.
In assay [12] the target is G protein-coupled receptor kinase 3 (Homo sapiens) (UniProt P35626). The conditions noted are these: at 1 µM.
The test system of assay [13] is Phosphatidylinositol 4,5-bisphosphate 3-kinase catalytic subunit alpha isoform (Homo sapiens), P42336 [Q546K]. Conditions: at 1 µM.
Assay [14] concerns the target Serine/threonine-protein kinase TAO3 (Homo sapiens) (UniProt Q9H2K8). Conditions: at 1 µM.
The target of assay [15] is Phosphatidylinositol 4,5-bisphosphate 3-kinase catalytic subunit beta isoform (Homo sapiens) (UniProt P42338). Conditions: at 10 µM.
Assay [16] concerns the target TGF-beta receptor type-1 (Homo sapiens) (UniProt P36897). Conditions: at 10 µM.
Assay [17] addresses T1, Tyrosine-protein kinase Blk. Conditions: at 10 µM.
The target in assay [18] is Mitotic checkpoint serine/threonine-protein kinase BUB1 (Homo sapiens) (UniProt O43683). The conditions noted are these: at 1 µM.
For assay [19], the target named is Serine/threonine-protein kinase WNK2 (Homo sapiens) (UniProt Q9Y3S1). The conditions noted are these: at 1 µM.
For assay [20], the target named is Epidermal growth factor receptor (Homo sapiens, UniProt P00533). The conditions noted are these: at 1 µM.
For assay [21], the target named is Serine/threonine-protein kinase WNK4 (Homo sapiens) (UniProt Q96J92). The conditions noted are these: at 1 µM.
Assay [22] addresses cAMP-dependent protein kinase catalytic subunit alpha (Homo sapiens, UniProt P17612). The conditions noted are these: at 10 µM.
Assay [23] deals with cAMP-dependent protein kinase catalytic subunit beta (Homo sapiens) (UniProt P22694). The conditions noted are these: at 10 µM.
In assay [24] the target is Ribosomal protein S6 kinase alpha-1 (Homo sapiens) (UniProt Q15418). The conditions noted are these: at 1 µM.
In assay [25] the target is Tyrosine-protein kinase JAK3 (Homo sapiens) (UniProt P52333). The conditions noted are these: at 10 µM.
For assay [26], the target named is Phosphatidylinositol 3-kinase C2 domain-containing subunit gamma (Homo sapiens) (UniProt O75747). Conditions: at 10 µM.
Assay [27] deals with Mitogen-activated protein kinase kinase kinase 7 (Homo sapiens) (UniProt O43318). Conditions: at 0.1 µM.
The target in assay [28] is T2, Leucine-rich repeat serine/threonine-protein kinase 2. Conditions: at 1 µM.
Assay [29] has as its target T3, High affinity nerve growth factor receptor (Homo sapiens, UniProt P04629). The conditions noted are these: at 1 µM.
For assay [30], the system named is Receptor-type tyrosine-protein kinase FLT3 (Homo sapiens), P36888 [D835V]. Conditions: at 1 µM.
In assay [31] the target is Cyclin-dependent kinase 4 (Homo sapiens) (UniProt P11802). The conditions noted are these: at 1 µM.
Assay [32] deals with Ribosomal protein S6 kinase alpha-4 (Homo sapiens) (UniProt O75676). Conditions: at 1 µM.
For assay [33], the system named is Tyrosine-protein kinase ABL1 (Homo sapiens), P00519 [Q252H]. The conditions noted are these: at 1 µM.
The target of assay [34] is Protein kinase C alpha type (Homo sapiens) (UniProt P17252). Conditions: at 1 µM.
The target in assay [35] is Sodium-dependent dopamine transporter (Homo sapiens, UniProt Q01959). The conditions noted are these: at 10 µM.
Assay [36] addresses Protein kinase C epsilon type (Homo sapiens) (UniProt Q02156). The conditions noted are these: at 1 µM.
Assay [37] deals with Vascular endothelial growth factor receptor 1 (Homo sapiens, UniProt P17948). Conditions: at 20 µM.
Assay [38] concerns the target Rhodopsin kinase GRK7 (Homo sapiens) (UniProt Q8WTQ7). Conditions: at 1 µM.
For assay [39], the target named is Inhibitor of nuclear factor kappa-B kinase subunit alpha (Homo sapiens) (UniProt O15111). Conditions: at 1 µM.
In assay [40] the target is Proto-oncogene tyrosine-protein kinase receptor Ret (Homo sapiens) (UniProt P07949). Conditions: at 3 µM.
Assay [41] addresses SWI/SNF-related matrix-associated actin-dependent regulator of chromatin subfamily A member 4 (Homo sapiens) (UniProt P51532).
In assay [42] the target is Protein polybromo-1 (Homo sapiens) (UniProt Q86U86).
Assay [43] concerns the target Phosphatidylinositol 4,5-bisphosphate 3-kinase catalytic subunit delta isoform (Homo sapiens) (UniProt O00329). Conditions: at 1 µM.
The next assay deals with D(1B) dopamine receptor (Homo sapiens, UniProt P21918). The conditions noted are these: at 10 µM.
Assay [44] deals with Serine/threonine-protein kinase Nek3 (Homo sapiens) (UniProt P51956). The conditions noted are these: at 1 µM.
Assay [45] addresses Interferon-induced, double-stranded RNA-activated protein kinase (Homo sapiens) (UniProt P19525). Conditions: at 1 µM.
The target of assay [46] is Serine/threonine-protein kinase Nek1 (Homo sapiens) (UniProt Q96PY6). The conditions noted are these: at 1 µM.
The target in assay [47] is Serine/threonine-protein kinase 38-like (Homo sapiens, UniProt Q9Y2H1). The conditions noted are these: at 1 µM.
Assay [48] concerns the target Muscarinic acetylcholine receptor M4 (Homo sapiens) (UniProt P08173). The conditions noted are these: at 10 µM.
Assay [49] addresses Protein kinase C iota type (Homo sapiens) (UniProt P41743). Conditions: at 1 µM.
Assay [50] concerns the target Phosphatidylinositol 4-phosphate 5-kinase type-1 alpha (Homo sapiens) (UniProt Q99755). Conditions: at 1 µM.
The target of assay [51] is SNF-related serine/threonine-protein kinase (Homo sapiens) (UniProt Q9NRH2). Conditions: at 1 µM.
For a further assay, the target named is Aurora kinase B (Homo sapiens, UniProt Q96GD4). The conditions noted are these: at 10 µM.
Assay [52] addresses Serine/threonine-protein kinase 10 (Homo sapiens) (UniProt O94804). The conditions noted are these: at 10 µM.
Assay [53] has as its target Platelet-derived growth factor receptor beta (Homo sapiens, UniProt P09619). Conditions: at 10 µM.
Assay [54] concerns the target NT-3 growth factor receptor (Homo sapiens, UniProt Q16288). The conditions noted are these: at 10 µM.
Assay [55] has as its target Muscle, skeletal receptor tyrosine-protein kinase (Homo sapiens) (UniProt O15146). Conditions: at 10 µM.
Assay [56] addresses T3, High affinity nerve growth factor receptor. The conditions noted are these: at 10 µM.
For assay [57], the target named is Macrophage colony-stimulating factor 1 receptor (Homo sapiens) (UniProt P07333). The conditions noted are these: at 10 µM.
In assay [58] the target is T1, Tyrosine-protein kinase Blk. Conditions: at 10 µM. The source holds these as a separate data set.
Assay [59] has as its target Tyrosine-protein kinase FRK (Homo sapiens, UniProt P42685). Conditions: at 10 µM.
For assay [60], the target named is Angiopoietin-1 receptor (Homo sapiens) (UniProt Q02763). Conditions: at 10 µM.
Assay [61] concerns the target Ephrin type-A receptor 3 (Homo sapiens) (UniProt P29320). The conditions noted are these: at 10 µM.
The target in assay [62] is MAP kinase-interacting serine/threonine-protein kinase 2 (Homo sapiens, UniProt Q9HBH9). Conditions: at 10 µM.
For assay [63], the target named is Mast/stem cell growth factor receptor Kit (Homo sapiens, UniProt P10721). The conditions noted are these: at 10 µM.
Assay [64] addresses BDNF/NT-3 growth factors receptor (Homo sapiens) (UniProt Q16620). Conditions: at 10 µM.
For assay [65], the target named is Receptor-type tyrosine-protein kinase FLT3 (Homo sapiens, UniProt P36888). Conditions: at 10 µM.
Assay [66] has as its system Receptor-type tyrosine-protein kinase FLT3 (Homo sapiens), P36888 [K663Q]. The conditions noted are these: at 1 µM.

Consider `CN(C)C(=O)/C(C#N)=C/c1ccc(-c2nc3cnc4[nH]ccc4c3n2C2CCCCC2)o1`, for which the % of inhibition was 51% in assay [1]; 52% in [2]; 61% in assay [3]; 60% in [4]; 43% in assay [5]; 74% in [6]. Also, the % of inhibition amounted to 66% in assay [7] and 69% in assay [8].
The molecule `COc1cc(Nc2ccnc3ccc(Br)cc23)cc(OC)c1OC` returned a dTM in assay [9] of 7.7 K.
In assay [10], `CCOc1cc(N2CCC(O)CC2)ccc1Nc1ncc2c(n1)N(C1CCCC1)CCC(=O)N2C` displayed a % of control of 4.1%.
On to `C[C@H](c1ccc(F)cc1)N(Cc1cccc(C(=O)O)c1)C(=O)c1cnc2ccccc2c1` [PF-05105679], for which the % of control in assay [11] amounted to 0%; in assay [12], 40%; in assay [13], 42%; in [14], 41%.
As to `N#CC1(c2ccccn2)CCN(Cc2cc(C(=O)O)c(=O)n3ccccc23)CC1` [MSD-M1PAM], the % of control stood at 36% in assay [15], 41% in assay [16] and 49% in assay [17].
`NS(=O)(=O)c1cc(NC(=O)Cc2ccccc2)ccc1Oc1cccc(Cl)c1` [BAY-1797]: the % of control stood at 1.6% in [18], 0% in [19], 47% in [20] and 0% in assay [21].
On to `CC1=C(C(=O)Nc2cc3cn[nH]c3cc2F)C(c2ccc(C(F)(F)F)cc2)CC(=O)N1` (stereo not drawn), for which the % of control in assay [22] came out at 4.2%; in [23] it was 6.4%; in assay [24] it was 20%; in assay [25], 3.2%.
The molecule `CS(=O)(=O)N1CCN(Cc2cc3nc(-c4cccc5[nH]ncc45)nc(N4CCOCC4)c3s2)CC1` showed a % of control in assay [26] of 27%.
On to `CNc1nc(Nc2cnn([C@H]3CCN(C4COC4)C[C@@H]3F)c2Cl)ncc1C(F)(F)F`, for which the % of control in assay [27] is below 50%.
For `COc1cccc(CNC(=O)c2nc3scc(COCc4ccc(C(=O)O)cc4)c3c(=O)[nH]2)c1`, the % of control in [28] was 43%; in assay [29], 46.7%; in [30], 44.2%; in assay [31], 43.5%.
`CC(=O)C1=C(C)N(c2cccc(C(F)(F)F)c2)C(=O)N[C@@H]1c1ccc(C#N)nc1` [BAY-678]: the % of control in assay [32] turned out to be 33.5%.
As for `CN(C)C(=O)Cn1cc(-c2nc([C@@](C)(c3ccc(-c4cnc(N)nc4)cc3)C3CC3)no2)cn1`, the % of control in assay [33] stood at 0%; in [34], 0%; in assay [36], 44%; in assay [38], 0%; in [39] it was 0%; in assay [40], 56%. The % of inhibition stood at 61% in assay [35] and 64% in assay [37].
For `O=C(/C=C/N1C[C@H]2C[C@@H]1CN2c1ccccn1)c1ccccc1O`, the dTm in assay [41] is 7 K; in assay [42] it was 9.1 K.
In the case of `N#Cc1ccc(Nc2ccc3[nH]c(=O)[nH]c3c2)c(Cl)c1`, the % of control in [43] is 32%; in [44], 41%. At D(1B) dopamine receptor, this molecule had a % of inhibition of 21.3%.
`O=C1CCc2cc(Nc3cc(OC4CCOCC4)c([N+](=O)[O-])cc3Cl)ccc2N1`: the % of control in assay [45] came to 46%; in assay [46], 40%; in [47] it was 41%. In addition, the % of inhibition in assay [48] was 49%.
Regarding `Cc1c(C(=O)O)cc(-c2ccc(C3CCNCC3)cc2)c2ccc(-c3ccc(C(F)(F)F)cc3)cc12`, the figures for the % of control in assay [49], in assay [50] and in assay [51] were 68%, 70% and 69%, respectively.
On to `CCOc1ccn(-c2ccc(F)cc2)c(=O)c1C(=O)Nc1ccc(Oc2ccnc(N)c2Cl)c(F)c1` [BMS-777607], for which the % of control stood at 0% on Aurora kinase B; 0% in assay [52]; 0.7% in assay [53]; 0.1% in [54]; 0% in assay [55]; 0.55% in [56]. Besides, the % of control in assay [57] was 0.8%; in assay [58] it was 0.35%; in assay [59], 0.55%; in assay [60], 0.15%; in [61], 0.1%; in assay [62], 0.75%. The % of control came to 0% in assay [63], 0.1% in assay [64] and 0.05% in assay [65].
`O=C(Nc1ccc(Oc2ccc(F)cc2)cc1)N1CCc2ncccc2[C@H]1c1ccc(F)cc1` showed a % of control in assay [66] of 41%.
